# According to ChEMBL document CHEMBL2218924, “A broad activity screen in support of a chemogenomic map for kinase signalling research and drug discovery” (Biochem J, 2013):
# Amino acid sequences for entries named in this document (tags omitted). A change or cut given only in a name is not applied to a line headed by its entry.
# UniProt P78362, whole entry, looked up: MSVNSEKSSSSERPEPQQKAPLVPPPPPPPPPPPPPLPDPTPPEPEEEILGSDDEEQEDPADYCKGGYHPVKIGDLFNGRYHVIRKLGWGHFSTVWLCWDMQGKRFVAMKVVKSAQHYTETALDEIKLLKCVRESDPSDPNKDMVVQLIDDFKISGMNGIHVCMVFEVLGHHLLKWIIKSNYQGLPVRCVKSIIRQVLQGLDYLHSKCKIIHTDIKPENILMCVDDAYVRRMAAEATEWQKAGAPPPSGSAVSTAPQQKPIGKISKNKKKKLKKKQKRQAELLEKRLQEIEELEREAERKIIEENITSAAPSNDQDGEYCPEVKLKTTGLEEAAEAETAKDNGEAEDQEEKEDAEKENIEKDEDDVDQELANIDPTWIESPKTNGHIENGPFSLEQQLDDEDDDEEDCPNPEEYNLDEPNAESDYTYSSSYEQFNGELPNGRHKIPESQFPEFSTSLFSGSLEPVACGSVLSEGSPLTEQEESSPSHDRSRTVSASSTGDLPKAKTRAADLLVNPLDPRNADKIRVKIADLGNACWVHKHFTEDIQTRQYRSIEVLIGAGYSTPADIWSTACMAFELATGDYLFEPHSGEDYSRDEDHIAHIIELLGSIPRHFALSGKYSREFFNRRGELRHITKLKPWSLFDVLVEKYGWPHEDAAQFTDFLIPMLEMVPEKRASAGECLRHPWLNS
# UniProt O60674: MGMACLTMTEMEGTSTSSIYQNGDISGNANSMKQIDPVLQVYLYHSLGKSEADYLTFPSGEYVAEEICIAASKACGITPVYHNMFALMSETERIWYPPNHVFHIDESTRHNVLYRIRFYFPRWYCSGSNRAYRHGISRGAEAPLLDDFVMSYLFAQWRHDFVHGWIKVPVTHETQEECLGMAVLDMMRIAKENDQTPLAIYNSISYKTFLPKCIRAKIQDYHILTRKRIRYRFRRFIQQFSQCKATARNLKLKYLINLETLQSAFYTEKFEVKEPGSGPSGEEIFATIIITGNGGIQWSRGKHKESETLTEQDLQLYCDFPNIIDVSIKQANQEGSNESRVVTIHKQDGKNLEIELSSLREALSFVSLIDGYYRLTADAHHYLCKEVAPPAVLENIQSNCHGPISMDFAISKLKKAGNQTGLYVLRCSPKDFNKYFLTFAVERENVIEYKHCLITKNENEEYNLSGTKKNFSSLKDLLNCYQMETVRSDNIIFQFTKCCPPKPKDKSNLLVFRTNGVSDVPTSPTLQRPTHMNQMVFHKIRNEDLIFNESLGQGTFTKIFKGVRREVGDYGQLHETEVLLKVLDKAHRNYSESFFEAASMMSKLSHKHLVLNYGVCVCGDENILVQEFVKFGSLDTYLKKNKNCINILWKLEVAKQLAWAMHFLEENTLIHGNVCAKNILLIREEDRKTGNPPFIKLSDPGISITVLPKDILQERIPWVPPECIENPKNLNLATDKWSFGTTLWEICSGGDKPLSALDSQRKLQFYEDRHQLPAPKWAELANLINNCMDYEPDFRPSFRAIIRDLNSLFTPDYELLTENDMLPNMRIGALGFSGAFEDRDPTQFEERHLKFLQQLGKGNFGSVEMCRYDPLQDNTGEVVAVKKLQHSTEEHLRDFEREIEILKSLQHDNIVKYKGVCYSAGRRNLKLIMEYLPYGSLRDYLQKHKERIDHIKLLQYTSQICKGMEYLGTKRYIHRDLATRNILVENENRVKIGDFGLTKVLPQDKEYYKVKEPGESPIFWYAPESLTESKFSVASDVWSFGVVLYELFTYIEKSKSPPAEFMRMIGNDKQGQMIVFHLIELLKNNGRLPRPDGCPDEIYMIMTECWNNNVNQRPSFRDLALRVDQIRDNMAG
# UniProt Q5VT25: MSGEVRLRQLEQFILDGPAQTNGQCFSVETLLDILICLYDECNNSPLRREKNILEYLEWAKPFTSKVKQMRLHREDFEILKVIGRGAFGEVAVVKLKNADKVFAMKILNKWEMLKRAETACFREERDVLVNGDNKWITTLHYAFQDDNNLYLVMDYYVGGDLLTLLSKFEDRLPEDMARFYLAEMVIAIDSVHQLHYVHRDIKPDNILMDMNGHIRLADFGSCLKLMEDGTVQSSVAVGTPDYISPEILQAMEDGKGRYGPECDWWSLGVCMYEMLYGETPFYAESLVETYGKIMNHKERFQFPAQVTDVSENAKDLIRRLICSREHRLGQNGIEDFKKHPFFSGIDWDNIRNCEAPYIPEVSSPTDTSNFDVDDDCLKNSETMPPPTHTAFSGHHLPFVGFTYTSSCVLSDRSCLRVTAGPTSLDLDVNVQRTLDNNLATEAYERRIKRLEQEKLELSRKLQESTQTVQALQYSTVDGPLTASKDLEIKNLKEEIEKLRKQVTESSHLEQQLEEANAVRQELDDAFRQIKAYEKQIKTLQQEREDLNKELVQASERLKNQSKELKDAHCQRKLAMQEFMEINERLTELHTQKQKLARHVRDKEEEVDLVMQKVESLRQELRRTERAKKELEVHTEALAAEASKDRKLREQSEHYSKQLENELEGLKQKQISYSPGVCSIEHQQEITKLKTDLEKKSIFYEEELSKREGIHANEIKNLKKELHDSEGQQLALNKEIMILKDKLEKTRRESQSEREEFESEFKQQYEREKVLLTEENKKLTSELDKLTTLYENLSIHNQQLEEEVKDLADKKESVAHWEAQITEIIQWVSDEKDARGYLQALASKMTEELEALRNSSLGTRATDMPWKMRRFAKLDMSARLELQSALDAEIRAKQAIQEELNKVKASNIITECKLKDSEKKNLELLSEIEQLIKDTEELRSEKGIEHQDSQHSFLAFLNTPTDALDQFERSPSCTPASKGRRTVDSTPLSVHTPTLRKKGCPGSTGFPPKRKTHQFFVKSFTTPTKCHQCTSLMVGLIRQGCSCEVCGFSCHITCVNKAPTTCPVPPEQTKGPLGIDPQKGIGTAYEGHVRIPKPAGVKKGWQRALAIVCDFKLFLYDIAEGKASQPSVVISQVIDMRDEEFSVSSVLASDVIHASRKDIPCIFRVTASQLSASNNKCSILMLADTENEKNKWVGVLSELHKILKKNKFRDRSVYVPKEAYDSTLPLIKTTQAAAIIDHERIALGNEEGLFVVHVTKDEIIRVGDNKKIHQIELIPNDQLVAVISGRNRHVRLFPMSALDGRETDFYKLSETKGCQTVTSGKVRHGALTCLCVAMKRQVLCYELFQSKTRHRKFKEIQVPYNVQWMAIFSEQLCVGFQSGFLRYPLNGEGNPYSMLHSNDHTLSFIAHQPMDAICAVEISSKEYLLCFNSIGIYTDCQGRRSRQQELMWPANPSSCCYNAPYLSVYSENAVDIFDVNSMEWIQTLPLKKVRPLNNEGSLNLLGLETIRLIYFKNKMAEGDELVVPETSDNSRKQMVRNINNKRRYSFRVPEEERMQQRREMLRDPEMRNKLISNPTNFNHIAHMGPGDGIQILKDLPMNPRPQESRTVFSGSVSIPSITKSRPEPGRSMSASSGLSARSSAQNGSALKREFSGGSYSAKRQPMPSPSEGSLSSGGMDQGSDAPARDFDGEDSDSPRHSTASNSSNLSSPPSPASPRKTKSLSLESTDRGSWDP
# UniProt O75582, whole entry, looked up: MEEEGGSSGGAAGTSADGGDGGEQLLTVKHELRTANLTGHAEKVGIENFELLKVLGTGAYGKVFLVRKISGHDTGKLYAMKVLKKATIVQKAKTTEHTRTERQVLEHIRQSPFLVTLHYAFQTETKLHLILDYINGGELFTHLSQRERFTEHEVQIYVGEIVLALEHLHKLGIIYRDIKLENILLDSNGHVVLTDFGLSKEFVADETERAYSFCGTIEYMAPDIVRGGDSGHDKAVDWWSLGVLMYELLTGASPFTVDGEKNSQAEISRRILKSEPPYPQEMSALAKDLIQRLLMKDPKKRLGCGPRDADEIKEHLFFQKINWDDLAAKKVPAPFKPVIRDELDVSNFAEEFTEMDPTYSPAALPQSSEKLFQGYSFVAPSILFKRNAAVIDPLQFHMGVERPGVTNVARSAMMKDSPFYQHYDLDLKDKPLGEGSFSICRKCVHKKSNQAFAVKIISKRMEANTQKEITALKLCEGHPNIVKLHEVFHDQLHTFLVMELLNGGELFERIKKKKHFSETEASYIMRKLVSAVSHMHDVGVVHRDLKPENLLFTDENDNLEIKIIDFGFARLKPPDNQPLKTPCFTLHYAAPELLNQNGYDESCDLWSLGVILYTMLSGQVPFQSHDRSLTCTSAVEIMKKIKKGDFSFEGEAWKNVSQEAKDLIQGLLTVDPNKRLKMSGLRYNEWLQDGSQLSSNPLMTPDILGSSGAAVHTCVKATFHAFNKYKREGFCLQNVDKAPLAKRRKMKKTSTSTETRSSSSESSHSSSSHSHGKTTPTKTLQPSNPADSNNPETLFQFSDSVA
# UniProt Q9UPE1, whole entry: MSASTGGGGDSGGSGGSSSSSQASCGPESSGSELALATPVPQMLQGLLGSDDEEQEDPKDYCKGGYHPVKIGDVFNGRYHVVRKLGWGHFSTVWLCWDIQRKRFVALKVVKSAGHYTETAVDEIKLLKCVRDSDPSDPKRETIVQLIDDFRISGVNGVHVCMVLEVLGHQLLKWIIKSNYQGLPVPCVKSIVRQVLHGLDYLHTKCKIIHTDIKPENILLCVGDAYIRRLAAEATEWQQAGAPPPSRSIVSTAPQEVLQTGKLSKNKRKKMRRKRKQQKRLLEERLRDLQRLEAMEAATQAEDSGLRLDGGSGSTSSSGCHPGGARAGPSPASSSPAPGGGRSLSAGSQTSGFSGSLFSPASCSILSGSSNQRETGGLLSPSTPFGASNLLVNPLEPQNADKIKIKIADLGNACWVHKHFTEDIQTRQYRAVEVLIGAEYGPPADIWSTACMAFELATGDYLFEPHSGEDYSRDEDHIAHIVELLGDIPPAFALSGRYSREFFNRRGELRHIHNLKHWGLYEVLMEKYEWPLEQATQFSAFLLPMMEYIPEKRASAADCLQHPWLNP
# UniProt Q8TDX7: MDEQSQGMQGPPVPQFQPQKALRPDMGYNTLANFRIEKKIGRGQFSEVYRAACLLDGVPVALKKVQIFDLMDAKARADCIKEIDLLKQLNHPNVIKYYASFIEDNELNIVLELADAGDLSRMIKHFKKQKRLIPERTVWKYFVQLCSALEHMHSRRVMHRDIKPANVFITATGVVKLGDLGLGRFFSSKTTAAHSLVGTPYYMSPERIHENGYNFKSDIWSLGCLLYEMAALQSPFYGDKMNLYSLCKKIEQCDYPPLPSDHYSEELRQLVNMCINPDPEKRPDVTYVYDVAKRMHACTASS
# UniProt P31749: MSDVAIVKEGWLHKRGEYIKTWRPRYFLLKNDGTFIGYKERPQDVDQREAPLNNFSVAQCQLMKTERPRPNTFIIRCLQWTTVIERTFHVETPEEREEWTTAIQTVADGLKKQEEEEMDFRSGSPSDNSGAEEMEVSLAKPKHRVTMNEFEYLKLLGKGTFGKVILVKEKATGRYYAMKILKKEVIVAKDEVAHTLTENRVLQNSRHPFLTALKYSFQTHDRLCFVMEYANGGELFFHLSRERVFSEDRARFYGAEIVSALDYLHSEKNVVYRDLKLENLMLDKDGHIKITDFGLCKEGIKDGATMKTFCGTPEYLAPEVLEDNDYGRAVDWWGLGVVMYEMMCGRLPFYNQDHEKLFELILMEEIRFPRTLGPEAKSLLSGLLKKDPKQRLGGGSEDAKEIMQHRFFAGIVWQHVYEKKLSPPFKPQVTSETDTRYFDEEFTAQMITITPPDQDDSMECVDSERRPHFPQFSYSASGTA
# UniProt P05771, whole entry, looked up: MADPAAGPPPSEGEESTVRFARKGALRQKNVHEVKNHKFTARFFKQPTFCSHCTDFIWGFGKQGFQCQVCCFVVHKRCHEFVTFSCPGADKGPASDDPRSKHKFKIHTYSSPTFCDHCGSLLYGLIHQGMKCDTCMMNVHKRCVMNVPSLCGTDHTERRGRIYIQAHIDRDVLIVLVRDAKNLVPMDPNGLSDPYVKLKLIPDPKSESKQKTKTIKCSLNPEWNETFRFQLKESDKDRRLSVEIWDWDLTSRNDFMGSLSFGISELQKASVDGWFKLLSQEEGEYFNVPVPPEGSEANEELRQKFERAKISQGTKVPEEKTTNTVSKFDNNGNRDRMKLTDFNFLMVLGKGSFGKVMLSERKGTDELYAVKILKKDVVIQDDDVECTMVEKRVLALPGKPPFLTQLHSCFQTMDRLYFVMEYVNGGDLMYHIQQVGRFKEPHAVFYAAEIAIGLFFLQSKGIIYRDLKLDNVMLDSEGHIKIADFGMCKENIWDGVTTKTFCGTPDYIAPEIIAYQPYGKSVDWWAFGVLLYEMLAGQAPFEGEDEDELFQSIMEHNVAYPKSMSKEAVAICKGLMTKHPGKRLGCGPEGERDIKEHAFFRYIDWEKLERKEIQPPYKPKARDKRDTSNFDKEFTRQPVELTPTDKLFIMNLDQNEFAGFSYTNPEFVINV
# For some assays here: What follows is the remainder of the data, with few or none of the strong results. The list shows a part of the results, in another mix than the full data.
# What was measured:
# [1] = target: SRSF protein kinase 2 (Homo sapiens) (UniProt P78362); details: at 1 µM
# [2] = target: Serine/threonine-protein kinase PLK2 (Homo sapiens) (UniProt Q9NYY3); details: at 1 µM;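 note: residual PLK2 kinase activity expressed as percent of uninhibited control, measured in MOPS buffer at pH 7.0 with EDTA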
# [3] = target: Insulin-like growth factor 1 receptor (Homo sapiens) (UniProt P08069); details: at 1 µM
# [4] = target: Insulin receptor-related protein (Homo sapiens) (UniProt P14616); details: at 1 µM
# [5] = target: Tyrosine-protein kinase JAK2 (Homo sapiens) (UniProt O60674); details: at 1 µM
# [6] = target: Mitogen-activated protein kinase 9 (Homo sapiens) (UniProt P45984); details: at 1 µM
# [7] = target: Mitogen-activated protein kinase 9 (Homo sapiens) (UniProt P45984); details: at 10 µM
# [8] = target: T1, Serine/threonine-protein kinase STK11 (Homo sapiens) (UniProt Q15831); details: at 10 µM
# T1 sequence (whole entry): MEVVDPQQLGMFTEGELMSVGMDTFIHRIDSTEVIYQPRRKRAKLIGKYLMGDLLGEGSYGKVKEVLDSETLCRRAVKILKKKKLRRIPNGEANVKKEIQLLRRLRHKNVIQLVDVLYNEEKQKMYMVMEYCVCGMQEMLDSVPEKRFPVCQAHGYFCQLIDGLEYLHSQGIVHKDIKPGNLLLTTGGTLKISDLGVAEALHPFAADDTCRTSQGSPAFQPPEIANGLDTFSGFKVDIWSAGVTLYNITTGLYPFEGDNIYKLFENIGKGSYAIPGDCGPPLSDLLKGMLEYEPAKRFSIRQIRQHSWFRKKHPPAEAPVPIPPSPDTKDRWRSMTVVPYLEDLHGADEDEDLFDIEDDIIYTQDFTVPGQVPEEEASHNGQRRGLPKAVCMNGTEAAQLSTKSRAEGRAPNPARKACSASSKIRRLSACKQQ
# [9] = target: Mitogen-activated protein kinase 1 (Homo sapiens) (UniProt P28482); details: at 10 µM
# [10] = target: Serine/threonine-protein kinase MRCK alpha (Homo sapiens) (UniProt Q5VT25); details: at 1 µM
# [11] = target: Ribosomal protein S6 kinase alpha-5 (Homo sapiens) (UniProt O75582); details: at 1 µM
# [12] = target: SRSF protein kinase 3 (Homo sapiens) (UniProt Q9UPE1); details: at 1 µM;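 note: residual kinase activity expressed as percent of uninhibited control, measured in MOPS buffer at pH 7.0 containing EDTA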
# [13] = target: Testis-specific serine/threonine-protein kinase 1 (Homo sapiens) (UniProt Q9BXA7); details: at 1 µM
# [14] = target: Serine/threonine-protein kinase WNK3 (Homo sapiens) (UniProt Q9BYP7); details: at 1 µM;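 note: remaining kinase activity expressed versus control, assayed in 8 mM MOPS buffer pH 7.0 with 0.2 mM EDTA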
# [15] = target: Serine/threonine-protein kinase mTOR (Homo sapiens) (UniProt P42345); details: at 1 µM
# [16] = target: T2, Serine/threonine-protein kinase Nek6 (Homo sapiens) (UniProt Q9HC98); details: at 1 µM
# T2 sequence (whole entry): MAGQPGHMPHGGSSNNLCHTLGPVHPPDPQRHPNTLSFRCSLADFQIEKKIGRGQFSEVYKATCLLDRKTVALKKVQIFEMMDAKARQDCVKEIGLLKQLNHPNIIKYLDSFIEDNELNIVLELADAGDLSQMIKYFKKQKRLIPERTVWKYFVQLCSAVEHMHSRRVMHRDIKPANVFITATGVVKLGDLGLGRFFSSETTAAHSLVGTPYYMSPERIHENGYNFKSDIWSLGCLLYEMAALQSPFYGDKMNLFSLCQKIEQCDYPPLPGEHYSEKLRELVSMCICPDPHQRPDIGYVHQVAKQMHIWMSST
# [17] = target: Serine/threonine-protein kinase Nek7 (Homo sapiens) (UniProt Q8TDX7); details: at 1 µM
# [18] = target: Serine/threonine-protein kinase Nek7 (Homo sapiens) (UniProt Q8TDX7); details: at 10 µM
# [19] = target: PAS domain-containing serine/threonine-protein kinase (Homo sapiens) (UniProt Q96RG2); details: at 1 µM
# [20] = target: T3, Activin receptor type-1B (Homo sapiens) (UniProt P36896); details: at 10 µM
# T3 sequence (whole entry): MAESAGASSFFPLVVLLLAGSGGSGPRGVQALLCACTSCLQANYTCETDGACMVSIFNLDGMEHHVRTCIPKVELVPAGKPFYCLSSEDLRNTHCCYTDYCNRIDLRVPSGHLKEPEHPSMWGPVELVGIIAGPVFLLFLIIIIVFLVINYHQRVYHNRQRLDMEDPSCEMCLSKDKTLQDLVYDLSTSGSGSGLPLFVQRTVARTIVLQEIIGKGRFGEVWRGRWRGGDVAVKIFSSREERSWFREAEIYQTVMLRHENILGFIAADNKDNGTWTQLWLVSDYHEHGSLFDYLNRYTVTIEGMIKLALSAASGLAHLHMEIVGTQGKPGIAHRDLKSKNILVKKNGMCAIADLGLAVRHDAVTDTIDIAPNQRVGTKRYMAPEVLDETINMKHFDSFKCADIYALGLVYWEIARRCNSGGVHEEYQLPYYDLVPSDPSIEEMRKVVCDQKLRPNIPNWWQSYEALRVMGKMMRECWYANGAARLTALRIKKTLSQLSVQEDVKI
# [21] = target: Mitogen-activated protein kinase kinase kinase 5 (Homo sapiens) (UniProt Q99683); details: at 1 µM
# [22] = target: cAMP-dependent protein kinase catalytic subunit alpha (Homo sapiens) (UniProt P17612); details: at 10 µM
# [23] = target: RAC-alpha serine/threonine-protein kinase (Homo sapiens) (UniProt P31749); details: at 10 µM
# [24] = target: RAC-gamma serine/threonine-protein kinase (Homo sapiens) (UniProt Q9Y243); details: at 1 µM
# [25] = target: RAC-gamma serine/threonine-protein kinase (Homo sapiens) (UniProt Q9Y243); details: at 10 µM
# [26] = target: Protein kinase C beta type (Homo sapiens) (UniProt P05771); details: at 10 µM
# [27] = target: Protein kinase C beta type (Homo sapiens) (UniProt P05771); details: at 1 µM
# [28] = target: Protein kinase C beta type (Homo sapiens) (UniProt P05771); details: at 10 µM; remark: listed apart in the source
# [29] = target: T4, Protein kinase C epsilon type (Homo sapiens) (UniProt Q02156); details: at 1 µM
# T4 sequence (whole entry): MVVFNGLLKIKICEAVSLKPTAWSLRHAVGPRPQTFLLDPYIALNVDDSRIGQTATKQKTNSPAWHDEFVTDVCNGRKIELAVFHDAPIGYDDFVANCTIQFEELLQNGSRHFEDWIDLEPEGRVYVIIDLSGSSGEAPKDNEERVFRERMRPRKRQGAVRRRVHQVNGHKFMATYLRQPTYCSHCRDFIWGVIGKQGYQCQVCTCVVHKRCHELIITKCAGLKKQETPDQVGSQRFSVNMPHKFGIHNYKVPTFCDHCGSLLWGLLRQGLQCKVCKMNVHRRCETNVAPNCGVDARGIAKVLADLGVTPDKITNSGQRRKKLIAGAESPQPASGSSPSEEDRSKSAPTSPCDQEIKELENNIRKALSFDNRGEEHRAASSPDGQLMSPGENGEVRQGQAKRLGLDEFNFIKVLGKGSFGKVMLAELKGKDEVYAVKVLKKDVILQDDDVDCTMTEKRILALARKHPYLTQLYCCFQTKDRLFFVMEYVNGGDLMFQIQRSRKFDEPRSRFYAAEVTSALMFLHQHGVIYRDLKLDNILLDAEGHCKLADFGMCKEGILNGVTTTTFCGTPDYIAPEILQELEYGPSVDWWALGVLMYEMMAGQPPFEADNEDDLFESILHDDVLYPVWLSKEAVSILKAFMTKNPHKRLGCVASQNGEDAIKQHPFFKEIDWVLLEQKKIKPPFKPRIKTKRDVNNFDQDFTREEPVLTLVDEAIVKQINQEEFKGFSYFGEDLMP
structure (smiles),measurement,setting,value
O=C(c1cc2cc(O)ccc2[nH]1)c1cc2cc(O)ccc2[nH]1,residual activity,[1],85%
same,residual activity,[2],87%
same,residual activity,[3],98%
same,residual activity,[4],101%
same,residual activity,[5],98%
same,residual activity,[6],99%
same,residual activity,[7],84%
same,residual activity,[8],88%
same,residual activity,[9],99%
same,residual activity,[10],85%
same,residual activity,[11],99%
same,residual activity,[12],92%
same,residual activity,[13],88%
same,residual activity,[14],inactive: 88%
same,residual activity,[15],97%
same,residual activity,[16],inactive: 92%
same,residual activity,[17],inactive: 95%
same,residual activity,[18],inactive: 99%
same,residual activity,[19],92%
same,residual activity,[20],87%
same,residual activity,[21],101%
same,residual activity,[22],86%
same,residual activity,[23],106%
same,residual activity,[24],93%
same,residual activity,[25],85%
same,residual activity,[26],91%
same,residual activity,[27],100%
same,residual activity,[28],93%
same,residual activity,[29],93%
